{"source": "paper PMC2819048", "about": "(Molecular cell, 2010)", "binders": {"B1": {"name": "DnaB helicase (enzyme, E. coli, UniProt P0ACB0 1-471, looked up)", "chain": "MAGNKPFNKQQAEPRERDPQVAGLKVPPHSIEAEQSVLGGLMLDNERWDDVAERVVADDFYTRPHRHIFTEMARLQESGSPIDLITLAESLERQGQLDSVGGFAYLAELSKNTPSAANISAYADIVRERAVVREMISVANEIAEAGFDPQGRTSEDLLDLAESRVFKIAESRANKDEGPKNIADVLDATVARIEQLFQQPHDGVTGVNTGYDDLNKKTAGLQPSDLIIVAARPSMGKTTFAMNLVENAAMLQDKPVLIFSLEMPSEQIMMRSLASLSRVDQTKIRTGQLDDEDWARISGTMGILLEKRNIYIDDSSGLTPTEVRSRARRIAREHGGIGLIMIDYLQLMRVPALSDNRTLEIAEISRSLKALAKELNVPVVALSQLNRSLEQRADKRPVNSDLRESGSIEQDADLIMFIYRDEVYHENSDLKGIAEIIIGKQRNGPIGTVRLTFNGQWSRFDNYAGPQYDDE"}}, "key": {"[1]": {"target": "T1, wild type DnaC (E. coli, UniProt P0AEF0 1-245)", "T1 sequence (looked up)": "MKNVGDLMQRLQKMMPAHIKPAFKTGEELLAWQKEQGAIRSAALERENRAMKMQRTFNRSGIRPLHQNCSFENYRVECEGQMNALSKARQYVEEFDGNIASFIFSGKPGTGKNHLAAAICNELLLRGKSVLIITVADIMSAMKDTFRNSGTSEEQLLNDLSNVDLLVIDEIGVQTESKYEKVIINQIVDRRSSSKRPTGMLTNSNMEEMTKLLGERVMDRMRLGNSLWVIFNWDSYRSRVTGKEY", "test": "SEC"}, "[2]": {"target": "T1, wild type DnaC", "test": "SPR"}}, "data": [{"binder": "B1", "values": [{"measurement": "DnaC monomers per oriC plasmid in the isolated prepriming complex (5 mM ATP)", "setting": "[1]", "result": "~6", "unit": "monomers per oriC plasmid"}, {"measurement": "stoichiometry N", "setting": "[1]", "result": "3 DnaC monomers per DnaB hexamer"}, {"measurement": "fold increase of affinity with 150 μM ATP against no ATP", "setting": "[2]", "result": "~2", "unit": "fold"}]}]}
